# Values of other authors as cited in US10941121B2 (AZIENDA OSPEDALIERA UNIVERSITARIA SENESE, priority 2015, dated 2021).
# Amino acid sequences for entries named in this document (tags omitted).
# UniProt O00571, whole entry: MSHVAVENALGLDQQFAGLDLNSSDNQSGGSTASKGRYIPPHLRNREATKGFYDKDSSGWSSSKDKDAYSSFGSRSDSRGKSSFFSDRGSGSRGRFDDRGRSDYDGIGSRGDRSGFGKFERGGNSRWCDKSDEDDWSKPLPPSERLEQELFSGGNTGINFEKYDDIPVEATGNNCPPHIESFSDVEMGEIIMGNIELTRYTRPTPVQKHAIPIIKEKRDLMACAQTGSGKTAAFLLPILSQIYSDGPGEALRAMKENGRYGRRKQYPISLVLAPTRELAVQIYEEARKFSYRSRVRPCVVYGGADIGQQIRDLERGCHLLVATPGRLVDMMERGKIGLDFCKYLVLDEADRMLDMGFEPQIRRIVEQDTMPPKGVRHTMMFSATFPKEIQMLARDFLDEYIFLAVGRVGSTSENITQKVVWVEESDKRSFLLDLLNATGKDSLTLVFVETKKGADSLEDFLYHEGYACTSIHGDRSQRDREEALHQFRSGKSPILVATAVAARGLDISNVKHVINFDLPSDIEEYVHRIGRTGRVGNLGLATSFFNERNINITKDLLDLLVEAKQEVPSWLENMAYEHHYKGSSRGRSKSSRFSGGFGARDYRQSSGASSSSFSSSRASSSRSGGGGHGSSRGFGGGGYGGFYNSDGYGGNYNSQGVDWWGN
# Target: DDX3 (Homo sapiens, UniProt O00571)
# Settings: read-out: Ki on DDX3; literature values; cited from earlier work
compound,measurement,value
O=C1/C(=C/c2c(NCCCO)nc3ccccn3c2=O)SC(=S)N1CCc1ccccc1,Ki,200 nM
